Results as given in patent US20100247444A1, “COMPOUND, […], NUCLEAR MAGNETIC RESONANCE ANALYSIS METHOD, NUCLEAR MAGNETIC RESONANCE IMAGING METHOD, MASS SP[…] AND MASS SP[…] METHOD” (KYOTO UNIVERSITY, priority 2007, published 2010).

Details: Meth-A cancer bearing BALB/c mouse; 100 μl of 2 mg/ml in PBS via tail vein; organs collected after 1 hour; liver lysate supernatant
Protocol: (i) Preparation of a cancer bearing mouse Meth-A cells cultured in abdominal cavity of a BALB/c mouse were harvested by administrating 50 ml saline to the mouse. The cells were collected by centrifugation and resuspended in PBS (50 ml). The cells were counted and prepared at 2.0×10^7/ml. 100 μl of the solution containing the cells was subcutaneously injected to a left foot of another BALE/c mouse. […] After 1 hour, the mouse was dissected and the necessary organs (blood (200 μl), liver, kidney, cancer) were collected into microtubes. 1× Lysis buffer (500 μl) was added to each of the tubes and the organs were mashed by using beads. The microtubes were centrifuged (14,000 rpm, 30 min) for the debris to be precipitated and the supernatants were collected and subjected to multiple resonance measurement utilizing magnetic coherence transfer between three elements of ^1H—^13C—^15N.

## [13CH3][15N+]([13CH3])([13CH3])CCO [^13C3—^15N-choline chloride]
  signals derived from methyl groups of cholines (triple resonance NMR, 3.0 ppm) in liver: detected
